Measurements from patent publication US10202345B2, “Substituted azaspiro(4.5)decane derivatives” (priority 2014, dated 2019).

The chains behind the UniProt entries cited, without tags or fusion partners. Where a name states a change or a piece, a line headed by the entry shows the natural chain unless it says otherwise.
UniProt P35372, whole entry, looked up: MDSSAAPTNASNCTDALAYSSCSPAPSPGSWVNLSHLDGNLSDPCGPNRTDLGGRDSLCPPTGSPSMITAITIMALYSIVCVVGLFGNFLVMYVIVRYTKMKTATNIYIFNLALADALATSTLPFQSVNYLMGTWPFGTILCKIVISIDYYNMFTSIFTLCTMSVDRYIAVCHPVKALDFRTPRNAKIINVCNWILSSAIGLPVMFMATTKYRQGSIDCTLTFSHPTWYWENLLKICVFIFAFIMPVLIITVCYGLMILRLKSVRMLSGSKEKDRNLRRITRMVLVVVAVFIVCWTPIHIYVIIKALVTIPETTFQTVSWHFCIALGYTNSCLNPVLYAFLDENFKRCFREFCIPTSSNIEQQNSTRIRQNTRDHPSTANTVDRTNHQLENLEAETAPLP
UniProt P41146: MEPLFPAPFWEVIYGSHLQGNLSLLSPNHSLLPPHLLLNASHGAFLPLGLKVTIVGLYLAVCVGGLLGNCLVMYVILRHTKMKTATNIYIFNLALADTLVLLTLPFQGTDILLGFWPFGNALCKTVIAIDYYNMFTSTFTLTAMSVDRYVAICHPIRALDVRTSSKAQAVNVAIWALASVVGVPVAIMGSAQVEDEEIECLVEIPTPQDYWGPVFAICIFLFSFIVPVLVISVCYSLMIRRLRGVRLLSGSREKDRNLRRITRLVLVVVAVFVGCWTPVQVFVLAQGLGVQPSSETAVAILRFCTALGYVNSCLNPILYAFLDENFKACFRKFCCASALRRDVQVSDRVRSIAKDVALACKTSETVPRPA

Experiments:
[1] = biological target: human μ opiate receptor (Homo sapiens, UniProt P35372); assay: μ opiate receptor binding assay with [3H]-naloxone (WGA-SPA beads); conditions: for Ki: read-out: Ki (μ) mean [μm], mean; for % inhibition (μ) [1 μM]: test concentration 1 μM
[2] = biological target: ORL1 receptor (Homo sapiens, UniProt P41146); assay: ORL1 receptor binding assay with 3H-nociceptin/orphanin FQ (WGA-SPA beads); conditions: for Ki: read-out: Ki (ORL1) mean, mean; for % inhibition (ORL1) [1 μM]: test concentration 1 μM

Row | SMILES | Ki [1] | % inhibition (μ) [1 μM] [1] | Ki [2] | % inhibition (ORL1) [1 μM] [2]
1 | CC(C)C(=O)N1CCC2(CCC(c3cccs3)(N(C)C)CC2)C1 (stereo not drawn) | 0.077 µM | 85% | 0.102 µM | 61%
2 | CN(C)C1(C2CCCC2)CCC2(CCN(CC3COC3)C2)CC1 (stereo not drawn) | 0.06 µM | 83% | 0.123 µM | 48%
3 | CN(C)C1(c2cccs2)CCC2(CCN(CCC(C)(C)C#N)C2)CC1 (stereo not drawn) | 0.0012 µM | 100% | 0.00875 µM | 90.5%
4 | COCCN1CC2(CCC(c3ccccc3)(N(C)C)CC2)CC1=O (stereo not drawn) | 0.013 µM | 95% | 0.0084 µM | 88%
5 | CN(C)C1(C2CCCC2)CCC2(CCN(C(=O)C3COC3)C2)CC1 (stereo not drawn) |  | 66% |  | 0.5%
6 | CNC1(c2cccs2)CCC2(CCN(C(=O)CC3CCC3)C2)CC1 (stereo not drawn) | 0.0024 µM | 102.5% | 0.0055 µM | 96%
7 | CCCCN1CCC2(CCC(Cc3ccccc3)(N(C)C)CC2)C1 (single isomer, unassigned) | 1110 µM | 61.5% |  | 21.67%
8 | CCCCC1(N(C)C)CCC2(CCN(C(=O)CC3CCC3)C2)CC1 (stereo not drawn) | 0.0135 µM | 99% | 0.043 µM | 77%
9 | COC(C)CCN1CC2(CCC(c3cccs3)(N(C)C)CC2)CC1=O (stereo not drawn) | 0.0015 µM | 99% | 0.0027 µM | 92.5%
10 | CN(C)C1(c2cccs2)CCC2(CCN(CCC3(O)CC3)C2)CC1 (stereo not drawn) | 0.0025 µM | 98.5% | 0.00165 µM | 97.5%
11 | CNC1(c2cccs2)CCC2(CCN(CCC3CCC3)C2)CC1 (stereo not drawn) | 0.00165 µM | 101% | 0.00435 µM | 93.5%
12 | CN(C)C1(c2ccccc2)CCC2(CCN(C(=O)CCC(C)(C)O)C2)CC1 (stereo not drawn) | 0.00935 µM | 97.5% | 0.015 µM | 90%
13 | CN(C)C1(C2CCCC2)CCC2(CC1)CC(=O)N(CC1CC1)C2 (stereo not drawn) | 0.0165 µM | 95% | 0.021 µM | 73.5%
14 | CN(C)C1(C2CCCC2)CCC2(CCN(CC3CC3)C2)CC1 (stereo not drawn) | 0.017 µM | 88.67% | 0.011 µM | 82.5%
15 | COCC(C)(C)C(=O)N1CCC2(CCC(c3ccccc3)(N(C)C)CC2)C1 (stereo not drawn) | 0.00635 µM | 97.5% | 0.0169 µM | 79%
16 | CCCC(=O)N1CCC2(CCC(CC3CCCCC3)(N(C)C)CC2)C1 (stereo not drawn) | 0.0265 µM | 92% | 24100 µM | 12%
17 | CN(C)C1(c2cccs2)CCC2(CCN(CC3(C#N)CCC3)C2)CC1 (stereo not drawn) | 0.00145 µM | 99% | 0.0032 µM | 91%
18 | CN(C)C1(c2ccccc2)CCC2(CC1)CC(=O)N(CC1(C#N)CCC1)C2 (stereo not drawn) | 0.00155 µM | 100.5% | 0.00061 µM | 98%
19 | CN(C)C1(c2ccccc2)CCC2(CCN(CCC3(O)CC3)C2)CC1 (stereo not drawn) | 0.00255 µM | 99% | 0.0034 µM | 95%
20 | CN(C)C1(C2CCCC2)CCC2(CCN(CCC(C)(C)C#N)C2)CC1 (stereo not drawn) | 0.00465 µM | 97.5% | 0.084 µM | 63.5%
21 | COC1(C(=O)N2CCC3(CCC(c4ccccc4)(N(C)C)CC3)C2)CC1 (stereo not drawn) | 0.0655 µM | 90.5% | 0.15 µM | 48.5%
22 | CN(C)C1(c2ccccc2)CCC2(CC1)CC(=O)N(CC1CCC1)C2 (stereo not drawn) | 0.63 µM | 37% | 0.0825 µM | 56.5%
23 | CN(C)C1(c2ccccc2)CCC2(CCN(CCC3CCOC3)C2)CC1 (stereo not drawn) | 0.0039 µM | 97.5% | 0.0067 µM | 94%
24 | COCC1(C(=O)N2CCC3(CCC(c4cccs4)(N(C)C)CC3)C2)CCC1 (stereo not drawn) | 0.00735 µM | 99.5% | 0.055 µM | 74%
25 | CN(C)C1(C2CCCC2)CCC2(CC1)CC(=O)N(CC1CCCC1)C2 (stereo not drawn) | 0.0014 µM | 99% | 0.0079 µM | 88.5%
26 | CN(C)C1(c2ccccc2)CCC2(CCN(CCC3(C#N)CC3)C2)CC1 (stereo not drawn) | 0.00325 µM | 98.5% | 0.0119 µM | 89%
27 | COC(C)CC(=O)N1CCC2(CCC(c3ccccc3)(N(C)C)CC2)C1 (stereo not drawn) | 0.0024 µM | 99% | 0.00325 µM | 96%
